Reference: patent US20130005012A1, “ENZYMATIC SYSTEM FOR MONOMER SYNTHESIS” (PHYTOGENE, INC., priority 2011, published 2013)

Set-up: species or system E. coli
Description: To examine the activity of purified FDC1 in vitro, we constructed an expression vector and expressed FDC1 in E. coli under various conditions. Plasmid pDEST17-FDC1 was transformed into E. Coli strain BL21(DE3) competent cells. Terrific-broth media supplemented with ampicillin (100 μg/mL) was inoculated with a 1000-time dilution of an overnight culture. The bacteria were cultured at 37° C. until OD600 reached 0.8 to 1.0, at which point isopropyl f3-D-1-thiogalactopyranoside (IPTG) was added to a final concentration of 0.2 mM, and continued to be cultured for 3 hours at the same temperature. We used three different lysis buffers to check the expression of FDC1. Buffer A contained 25 mM potassium phosphate buffer pH 7.5, 500 mM sodium chloride, 10 mM imidazole, 20 mM PME, 0.5 mM PMSF, 10 mM MgCl2, 2 μg/mL DNAse, 2 μg/mL RNAse, and 4 μg/mL lysozyme. Buffer B contained 50 mM potassium phosphate pH buffer 7.0, 1 mM DTT, 50 mM sodium thiosulfate, 20% glycerol, 500 mM NaCl, 10 mM MgCl2, 20 mM imidazole, 2 μg/mL DNAse, 2 μg/mL RNAse, and 4 μg/mL lysozyme. Buffer C was composed of Buffer A containing 50 mM sodium thiosulfate and 20% glycerol.
To produce functional FDC1 in E. coli, expression of FDC1 was induced at various temperatures (37° C., 30° C., 25° C., 18° C., and 16° C.) in the presence of various concentrations of IPTG (0.2 mM, 0.5 mM). […]

B1: yeast FDC (ferulic acid decarboxylase, FDC1, Saccharomyces cerevisiae) in bait vector pGBKT7-Gateway (enzyme)
chain: MRKLNPALEFRDFIQVLKDEDDLIEITEEIDPNLEVGAIMRKAYESHLPAPLFKNLKGASKDLFSILGCPAGLRSKEKGDHGRIAHHLGLDPKTTIKEIIDYLLECKEKEPLPPITVPVSSAPCKTHILSEEKIHLQSLPTPYLHVSDGGKYLQTYGMWILQTPDKKWTNWSIARGMVVDDKHITGLVIKPQHIRQIADSWAAIGKANEIPFALCFGVPPAAILVSSMPIPEGVSESDYVGAILGESVPVVKCETNDLMVPATSEMVFEGTLSLTDTHLEGPFGEMHGYVFKSQGHPCPLYTVKAMSYRDNAILPVSNPGLCTDETHTLIGSLVATEAKELAIESGLPILDAFMPYEAQALWLILKVDLKGLQALKTTPEEFCKKVGDIYFRTKVGFIVHEIILVADDIDIFNFKEVIWAYVTRHTPVADQMAFDDVTSFPLAPFVSQSSRSKTMKGGKCVTNCIFRQQYERSFDYITCNFEKGYPKGLVDKVNENWKRYGYK
notes: Yeast two-hybrid bait fusion expressed in Clontech Y2HGold cells; also called FDC (Bait vector); not shown: fusion partner encoded by yeast two-hybrid bait vector pGBKT7-Gateway
In the case of B1, the “effect of induction temperature on expression and solubility” value is reported as “lower temperature improved expression and solubility”.
